# According to patent US20220169997:
# Columns and labels:
# [1] = system: PR407: SP(HSA)-PTEN-L-cathepsin B*-HSA-6xHis
# [2] = system: PR408: SP(HSA)-PTEN-L-cathepsinB**-HSA-6xHis
substance,measurement,setting,value
Active CATSB (BioVision #7580-5),"in vitro cleavage of the fusion in CHO-3E7 supernatant (0.3 µg/ml CATSB; only at low pH), fraction released as PTEN-L-like fragment, WB with F-1 anti-PTEN",[1],CATSB cleaved PR407 (SEQ ID NO:131; cDNA SEQ ID NO:159) and PR408 (SEQ ID NO:132; cDNA SEQ ID NO:160) to release a PTEN-L-like fragment at similar amounts (about 20% of total)
same,"in vitro cleavage of the fusion in CHO-3E7 supernatant (0.3 µg/ml CATSB; only at low pH), fraction released as PTEN-L-like fragment, WB with F-1 anti-PTEN",[2],CATSB cleaved PR407 (SEQ ID NO:131; cDNA SEQ ID NO:159) and PR408 (SEQ ID NO:132; cDNA SEQ ID NO:160) to release a PTEN-L-like fragment at similar amounts (about 20% of total)
